According to publication PMC3813364 (Iranian Journal of Pharmaceutical Research : IJPR, 2013):
“Also recorded” adds a separate entry of the source.

What was measured:
[1] = system: everted sacs of rat small intestine (jejunum); experiment: Etoposide mucosal-to-serosal transport across everted gut sac in absence or presence of excipients/P-gp inhibitor; conditions: etoposide 25 μg/mL; verapamil 100 μg/mL, TPGS 0.002-0.1 mg/mL, PEG 400 0.05, 0.1 and 0.5% w/v; compared to control
[2] = dose of 1.0 g/Kg/day; cited from earlier work
[3] = cited from earlier work
[4] = system: everted sacs of rat small intestine (jejunum); experiment: LDH release of the everted gut sac; conditions: TPGS 0.1 mg/mL, PEG 0.5% w/v, 90 min
Method: The viability and any possible damage of the gut were evaluated by measuring the release of the cytosolic enzyme lactic dehydrogenase (LDH) as an indicator of cell damage ([18]). The LDH activity was determined in the incubation media in the absence or presence of the excipients using LDH-P kit from Kimia pajouhan (Tehran, Iran). The results were calculated as U/L/cm^2 of sac area (1 unit reduces 10^-6 mol pyruvate per min at pH of 7.5). The influence of excipients (using the maximum concentrations) on the viability of gut sac was measured at 30, 60 and 90 min and compared to the control group (without adding any excipient).

Substance: D-α-tocopherol polyethylene glycol 1000 succinate [TPGS]
- Effect on absorptive transport/permeability of etoposide (in words) [1]: significantly enhanced; also recorded: significant effects
- Toxicity [2]: non-toxic
- CMC [3]: 0.2 mg/mL
- LDH release in presence of excipient versus control [4]: not notably changed
